Earlier results as cited in US9617577B2, “Bacillus pumilus bilirubin oxidase and applications thereof” (CENTRE NATIONAL DE LA RECHERCHE SCIENTIFIQUE, priority 2010, dated 2017).

System: Bacillus subtilis CotA (BOD)
Conditions: read-out: KM (ABTS); same optimal activity conditions; Martins et al., 2008; cited from earlier work

CCn1c(=NN=c2sc3cc(S(=O)(=O)O)ccc3n2CC)sc2cc(S(=O)(=O)O)ccc21 [ABTS, 2,2′-azinobis(3-ethylbenzothiazoline-6-sulphonic acid)]
Km: 124 µM
